Assay results reported in patent US20230263956A1, “INGESTIBLE DRUG DELIVERY DEVICE” (Massachusetts Institute of Technology, priority 2020, published 2023).

Experiment: In vivo testing: tethered device jetting insulin into the stomach wall
Set-up: species or system Yorkshire pigs
Details: jet of insulin into stomach wall, 0.5 Units per kilogram, three of the five device tests
Experimental: Studies were performed by trained veterinary technicians at MIT's animal testing facilities. Yorkshire pigs weighing between 70 and 90 kg were used. All studies were terminal studies (meaning the animal was euthanized immediately afterward). FIG. 7 illustrates the use of a tethered device 100 which was used to deliver a jet of insulin to form depots 118 in the stomach wall of the animal. The testing protocol is described further below.
During testing, a weight of the pig was determined, and a quantity of insulin was selected to achieve a dose of 0.5 Units per kilogram (1 Unit=0.0347 mg). The powder insulin was then added to a 0.1M NaOH solution, and PF68 and HEPES were used as stabilizing agents. From there 0.1M HCl was added to assist with dissolution of the insulin, and deionized water was added if further dilution was desired. […] This formulation procedure was carried out the morning or evening before each in vivo study, and the resulting solution it was stored at 4° C. until the time of administration.
The device was loaded with API and CO2 in the operating room where the animal was sedated and intubated. […]
Blood samples were collected by ear catheter or femoral catheter. […] The blood-glucose level was monitored at each draw using commercial glucose monitoring strips. […] The samples were then subsequently analyzed with a custom Ezyme-linked immunosorbent assay (ELISA) for […].

Substance: insulin
- blood-plasma insulin concentration: increase in blood-plasma insulin concentration
